Results taken from patent publication US20050148627A1 (priority 2003, published 2005).
Values joined by “and” are separate entries in the source; they are usually repeats but may differ in a detail not shown here. Equal values may be shown once.

Protein sequences, listed by entry. Tags and fused reporters are not part of them. Residues count along the entry.
UniProt P35354, 18-604 limits assumed: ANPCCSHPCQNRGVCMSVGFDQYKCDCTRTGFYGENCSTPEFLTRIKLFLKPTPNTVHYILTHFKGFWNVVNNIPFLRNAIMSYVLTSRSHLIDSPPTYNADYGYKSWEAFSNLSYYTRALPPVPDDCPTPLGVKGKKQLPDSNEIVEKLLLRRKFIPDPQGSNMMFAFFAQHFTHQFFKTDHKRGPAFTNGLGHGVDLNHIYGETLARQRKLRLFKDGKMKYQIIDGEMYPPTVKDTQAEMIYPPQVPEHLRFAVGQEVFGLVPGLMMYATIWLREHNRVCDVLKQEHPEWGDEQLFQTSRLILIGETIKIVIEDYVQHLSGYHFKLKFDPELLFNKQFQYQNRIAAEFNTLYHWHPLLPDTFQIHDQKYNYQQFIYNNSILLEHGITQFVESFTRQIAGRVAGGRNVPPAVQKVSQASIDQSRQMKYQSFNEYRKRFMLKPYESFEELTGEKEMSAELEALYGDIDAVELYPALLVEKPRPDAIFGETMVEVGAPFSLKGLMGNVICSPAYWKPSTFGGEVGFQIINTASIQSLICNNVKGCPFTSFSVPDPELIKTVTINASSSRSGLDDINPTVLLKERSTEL

What was measured:
COX-2 [1] = target: T1, COX-2 (Homo sapiens, UniProt P35354); assay: Assay for COX-1 and COX-2 Activity (PGE2 ELISA): COX-2; details: read-out: hCox-2 IC50; human COX-2; standard assay
COX-2 [2] = target: T1, COX-2; assay: Modified Assay for COX-1 and COX-2 Activity (PGE2 ELISA): COX-2; details: read-out: hCox-2 Modified IC50, human COX-2

Row | IC50 (COX-2 [1]) | IC50 (COX-2 [2]) | Compound
1 | 13 µM | 9.28 µM | O=C(O)C1=Cc2cc(-c3ccc4cc[nH]c4c3)ccc2OC1C(F)(F)F (stereo not shown)
2 | 65.8 µM | 23.4 µM | O=C(O)C1=Cc2cc(-c3ccco3)cc(Cl)c2OC1C(F)(F)F (stereo not shown)
3 | 23 µM | 16.3 µM | O=C(O)C1=Cc2cc(-c3ccc(F)cc3)cc(Cl)c2OC1C(F)(F)F (stereo not shown)
4 | < 0.137 µM | < 0.137 µM | Cc1ccc(Oc2cc3c(cc2Cl)C=C(C(=O)O)C(C(F)(F)F)O3)c(F)c1 (stereo not shown)
5 | 5.47 µM and 3.55 µM | – | O=C(O)C1=Cc2cc(-c3cccc4cccnc34)ccc2OC1C(F)(F)F (stereo not shown)
6 | > 100 µM | 52.9 µM | O=C(O)C1=Cc2cc(-c3ccccc3)cc(Cl)c2OC1C(F)(F)F (stereo not shown)
7 | > 100 µM | 37.3 µM | O=C(O)C1=Cc2cc(-c3ccsc3)cc(Cl)c2OC1C(F)(F)F (stereo not shown)
8 | > 100 µM | – | O=C(O)C1=Cc2cc(-c3ccsc3)ccc2OC1C(F)(F)F (stereo not shown)
9 | 14.4 µM | 2.8 µM | Cc1ccc(-c2ccc3c(c2)C=C(C(=O)O)C(C(F)(F)F)O3)cc1 (stereo not shown)
10 | 0.316 µM and 0.405 µM | 0.236 µM and 0.203 µM | O=C(O)C1=Cc2c(Oc3ccccc3)cccc2OC1C(F)(F)F (stereo not shown)
11 | 0.849 µM | 0.192 µM | O=C(O)C1=Cc2ccc(Oc3ccc(Br)cc3Br)cc2OC1C(F)(F)F (stereo not shown)
12 | 3.59 µM and 2.14 µM | – | O=C(O)C1=Cc2cc(-c3ccc4ccccc4c3)ccc2OC1C(F)(F)F (stereo not shown)
13 | – | 5.99 µM and > 11.1 µM | COc1ccc(-c2ccc3c(c2)C=C(C(=O)O)C(C(F)(F)F)O3)cc1OC (stereo not shown)
14 | > 100 µM | 32.2 µM and 60.4 µM | O=C(O)C1=Cc2cc(-c3ccco3)ccc2OC1C(F)(F)F (stereo not shown)
15 | 0.377 µM | 0.382 µM | CC(C)c1cccc(-c2ccc3c(c2)C=C(C(=O)O)C(C(F)(F)F)O3)c1 (stereo not shown)
16 | ≥ 100 µM | – | Cc1cc(Cl)c(Oc2c(Cl)cc(Cl)c3c2C=C(C(=O)O)C(C(F)(F)F)O3)cc1C (stereo not shown)
17 | – | 7.47 µM | Cc1csc(-c2ccc3c(c2)C=C(C(=O)O)C(C(F)(F)F)O3)c1 (stereo not shown)
